# Antibody variant affinities, Ab-95 light chain, assay 2

From the AlphaSeq antibody data of Engelhart et al. 2022 (doi:10.1038/s41597-022-01779-4), copy in the FLAb collection.

Target: peptide PDVDLGDISGINAS, taken from heptad repeat 2 (HR2) of SARS-CoV-2 spike.

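The parent was found by panning a naive human phage display library on the peptide. In library AAYL52, one, two or three CDR residues were substituted; doubles and triples were drawn at random. The assay is AlphaSeq: two haploid yeast populations carry antibody and antigen on their surface. Pairs that bind mate more often; barcode pairs of the diploids are counted by sequencing. Read counts were normalised to the haploid input and turned into Kd by a linear fit to BCL2-family pairs of known affinity, for each replicate. Mating was done three times.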

The variants keep the heavy chain, the linker and the frameworks of Ab-95 (scFv order VH, the linker GGGGSGGGGSGGGGS, VL).
VH: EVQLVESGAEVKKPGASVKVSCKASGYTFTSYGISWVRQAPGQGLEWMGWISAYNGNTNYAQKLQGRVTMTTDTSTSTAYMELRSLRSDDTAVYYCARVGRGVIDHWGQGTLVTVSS
VL: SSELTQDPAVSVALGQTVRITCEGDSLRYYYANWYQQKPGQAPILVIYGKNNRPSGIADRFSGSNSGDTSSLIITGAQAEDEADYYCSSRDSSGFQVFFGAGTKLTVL

Variants are written as CDR1, CDR2 and CDR3 of the light chain (limits as in the source). Parent: EGDSLRYYYAN, GKNNRPS, SSRDSSGFQVF.
All variants listed here change S92 of the VL, counted from its first residue.
The Kd shown is the geometric mean over detected replicates; a lower Kd is a better binder.
An entry "not detected" has no value in the source: the pair was not observed among the diploids in any replicate. This suggests poor binding but is not conclusive.

CDR-L1	CDR-L2	CDR-L3	Kd	seen in	signal with controls
EGDSLRYYYAN	GKNNRPS	SSRDCSYHQVF	2.9 µM	2 of 3	0 of 9
EGDSLRYYYAN	GKNNRPY	SSRDESGFQVW	140 nM	3 of 3	0 of 9
EGDSLRYYYAN	GKNNRVS	SSRDYSGTQVF	520 nM	3 of 3	0 of 9
EGDSLRYYYAN	GKNNRTS	SSLDTSGFQVF	22 µM	1 of 3	2 of 9
EGDSLRYYYAN	GKNNRPY	SSRDKSGFQVF	390 nM	3 of 3	1 of 9
EGDSLRYYYAN	GKNNRCS	SSRDESGFQFF	800 nM	2 of 3	2 of 9
EGDSLRYYYAN	EKNNRPS	SSRDTSVFQVF	820 nM	1 of 3	4 of 9
EGDSLRYYYAN	GKNRRPS	SSRDHSGWQVF	3.3 µM	3 of 3	3 of 9
EGDSLRVYYAD	GKNNRPS	SSRDYSGFQVF	1.1 µM	3 of 3	5 of 9
EGDSLRYYYAN	GKKNMPS	SSRDMSGFQVF	130 µM	1 of 3	2 of 9
EGDSLRYYHAA	GKNNRPS	SSRDRSGFQVF	3.8 µM	2 of 3	3 of 9
EGDSLRPYYAN	GKNDRPS	SSRDDSGFQVF	400 nM	3 of 3	2 of 9
EGDSLRYYYAN	GKNNRPS	SSRDWSGFQVF	280 nM	3 of 3	3 of 9
EGDSLRYYYAN	GKNNRPS	ISRDPSGFQSF	28 µM	2 of 3	1 of 9
EGESLPYYYAN	GKNNRPS	SSRDVSGFQVF	240 nM	3 of 3	5 of 9
EGDSLRYYYAN	GKNNRPS	SSRWPSGFQVF	770 nM	3 of 3	5 of 9
EGDSLRYYYHN	GKRNRPS	SSRDFSGFQVF	not detected	0 of 3	2 of 9
EGDSLRYYSAN	GKNNRPS	SSVDESGFQVF	510 nM	1 of 3	1 of 9
EGDSLRYYYAN	GKNNRPS	SSRDQSGFQVF	120 nM	3 of 3	2 of 9
EGDSLRYTYAP	GKNNRPS	SSRDRSGFQVF	9.2 µM	1 of 3	0 of 9
EGDSLRYYYAN	GINNRGS	SSRDYSGFQVF	2.0 µM	3 of 3	4 of 9
EGDSLRYYYAN	GKNNRPQ	ESRDPSGFQVF	220 nM	3 of 3	3 of 9
LGDSLRYYYAN	GKNNRPS	SSRDHSWFQVF	not detected	0 of 3	0 of 9
EGDSLRYYYAN	GKNNRPS	SSHDCSGKQVF	62 µM	1 of 3	1 of 9
EGDSLRYYYAN	GKNNRPS	SSNNASGFQVF	290 nM	3 of 3	5 of 9
EGDSLRYYYAN	GKNNRPV	SSRDESGFQVF	900 nM	3 of 3	1 of 9
EGDSLRYFYAN	GKNNRPS	SSRDNSGFQVF	2.0 µM	2 of 3	1 of 9
EGDSLRYYYAN	GKPNRPS	SSRDVSWFQVF	17 µM	1 of 3	3 of 9
ENDSLRYYYAN	GKFNRPS	SSRDVSGFQVF	not detected	0 of 3	3 of 9
EGDQLRYYYAN	GKNNRPS	SSRDICGFQVF	32 µM	2 of 3	4 of 9
EGDSLRYYYAN	GKNVRPS	ASRDNSGFQVF	1.5 µM	3 of 3	1 of 9
EGDSLRYYYAN	GKNNRPS	SSTDRSGDQVF	760 nM	3 of 3	5 of 9
EGDSLRYWYAN	GKNNRPS	SSRDCSGFQVF	1.2 µM	3 of 3	0 of 9
EGDSLRYYYAN	GKNCRPS	SSRDPRGFQVF	12 µM	3 of 3	1 of 9
EGDSLRYYYAN	GKNNRPS	SFRDTSGFEVF	5.8 µM	3 of 3	6 of 9
EGDSLRGRYAN	GKNNRPS	SSRDGSGFQVF	19 nM	3 of 3	4 of 9
EGDSLRPYYAN	GKNMRPS	SSRDPSGFQVF	500 nM	3 of 3	1 of 9
EGDSLRCYYAN	GKNNRPS	SSRDRYGFQVF	6.3 µM	3 of 3	3 of 9
LGDSLRYYYAN	GKNNRRS	SSRDNSGFQVF	2.3 µM	1 of 3	1 of 9
EGDSLQYYYAN	GKNNRPS	SSRDMPGFQVF	710 nM	3 of 3	5 of 9
EGDALRYYDAN	GKNNRPS	SSRDYSGFQVF	29 nM	3 of 3	0 of 9
EGDSLRYYYAN	GKNRRPS	SSRDNSEFQVF	12 µM	3 of 3	2 of 9
EGDSLRYYYAN	GKNNRPS	SSRDTSGFQVM	810 nM	3 of 3	0 of 9
EGDSLRYYYAN	GKTNRPS	SSRDVSGFQEF	29 µM	1 of 3	4 of 9
EQDSLRYYYAN	GKNNRPS	SSRDESGFDVF	not detected	0 of 3	2 of 9
EGDSTRYYYAN	GKNNRPS	MSRDDSGFQVF	47 nM	1 of 3	0 of 9
EGDSLRYYYAN	GKNNIPS	SSRDMSGFQVF	12 µM	2 of 3	2 of 9
EGDSLRYYYAN	SKNNRPS	SSRDQSGYQVF	150 nM	3 of 3	3 of 9
EGDNLRYYYAN	GKNNRPS	SSQDISGFQVF	2.9 µM	2 of 3	2 of 9
IGDSLRYWYAN	GKNNRPS	SSRDKSGFQVF	800 nM	3 of 3	1 of 9
EGDFLRYYYAN	GKNNRPS	SIRDKSGFQVF	not detected	0 of 3	2 of 9
EGDSLRYDYAN	GKNNRPS	SSRDASGFPVF	8.6 µM	3 of 3	8 of 9
EGNSLRYYYAN	GKDNRPS	SSRDLSGFQVF	3.2 µM	2 of 3	1 of 9
EGDILRYYYAN	GKNNRPQ	SSRDISGFQVF	8.8 µM	3 of 3	3 of 9
EGDSLRYYYAN	GKNNFPS	SSRDNSGFHVF	not detected	0 of 3	2 of 9
ETDSLRYYYAN	GKNNRPY	SSRDVSGFQVF	4.5 µM	3 of 3	3 of 9
EGDSLRYYYAN	GKANRPS	SSRQFSGFQVF	4.2 µM	3 of 3	3 of 9
EGDSLRYYYAN	GKNNRPS	SSRDCHGRQVF	120 nM	3 of 3	5 of 9
ENDSLRYYYAN	WKNNRPS	SSRDVSGFQVF	3.9 µM	3 of 3	3 of 9
TGDILRYYYAN	GKNNRPS	SSRDKSGFQVF	2.3 µM	2 of 3	1 of 9

From the list, the first 6 with no signal in any replicate:

{"CDR-L1": "EGDSLRYYYHN", "CDR-L2": "GKRNRPS", "CDR-L3": "SSRDFSGFQVF", "Kd": "not detected", "seen in": "0 of 3", "signal with controls": "2 of 9"}
{"CDR-L1": "LGDSLRYYYAN", "CDR-L2": "GKNNRPS", "CDR-L3": "SSRDHSWFQVF", "Kd": "not detected", "seen in": "0 of 3", "signal with controls": "0 of 9"}
{"CDR-L1": "ENDSLRYYYAN", "CDR-L2": "GKFNRPS", "CDR-L3": "SSRDVSGFQVF", "Kd": "not detected", "seen in": "0 of 3", "signal with controls": "3 of 9"}
{"CDR-L1": "EQDSLRYYYAN", "CDR-L2": "GKNNRPS", "CDR-L3": "SSRDESGFDVF", "Kd": "not detected", "seen in": "0 of 3", "signal with controls": "2 of 9"}
{"CDR-L1": "EGDFLRYYYAN", "CDR-L2": "GKNNRPS", "CDR-L3": "SIRDKSGFQVF", "Kd": "not detected", "seen in": "0 of 3", "signal with controls": "2 of 9"}
{"CDR-L1": "EGDSLRYYYAN", "CDR-L2": "GKNNFPS", "CDR-L3": "SSRDNSGFHVF", "Kd": "not detected", "seen in": "0 of 3", "signal with controls": "2 of 9"}

Three control strains display no target. For library AAYL52, 28% of the pairings with them gave a signal, with a median of 8.2 µM and one signal in twenty below 800 nM, so weak values seen in few replicates may be background. Also given: how often the same scFv was detected with the empty control strains.
Parent in this assay: reference entry 200 nM, copy in this library 180 nM.